Values of other authors, collected in patent US4584404A, “Substituted phenoxyphenylproply dimethylamines” (priority 1983, dated 1986).

Tested on: 5HT uptake vs NE uptake
Conditions: cited from earlier work

Structure (SMILES): CNCCC(Oc1ccc(C(F)(F)F)cc1)c1ccccc1 (centres unmarked) [fluoxetine, 3-phenyl-3-(p-trifluoromethyl)phenoxypropyl methylamine]
- uptake inhibition in words, earlier patents (5HT, NE, dopamine): selective 5HT uptake inhibitor
- ratio of the 50% inhibitory concentrations for 5HT uptake vs NE uptake (x to 1, 0.06 to 20): about 333
